From article PMC3199867, “Targeting surface nucleolin with multivalent HB-19 and related Nucant pseudopeptides results in distinct inhibitory mechanisms depending on the malignant tumor cell type” (BMC Cancer, 2011)

System: surface nucleolin
Assay: Down regulation of surface nucleolin in HeLa CD4+ cells, immunoblotting
Format: cell-based, human
Conditions: 7 hours
Experimental: Nucleolin was analyzed by immunoblotting using either the monoclonal antibody (mAb) D3 against nucleolin (kindly provided by Dr. J. S. Deng), or rabbit polyclonal antibodies directed against a synthetic peptide corresponding to the first 26 ([…]) and the last 16 (GGGGDHKPQGKKTKFE) amino acid residues of human nucleolin as described before. […] The reacting bands were visualized with an enhanced chemiluminescence (ECL) reagent and by exposure to autoradiography film (Amersham Biosciences). In some experiments, the presence of actin was monitored as a control with mAb anti-actin A-4700 (Sigma). […]
Figure 2 HB-19 and related Nucant pseudopeptides antagonize surface nucleolin and trigger its down regulation. […] At 48 h post-infection, the β-galactosidase activity was measured in cell extracts directly to monitor HIV entry (Methods). The abscissa gives % Activity of surface nucleolin calculated from the optical density measurements at 570 nm. […] Cytoplasmic (containing cytoplasmic as well as surface nucleolin) and nuclear extracts were analyzed by immunoblotting using mAb D3 as described (Methods)(panels Surface/cytoplasmic NCL, Nuclear NCL). […]

CC(=O)N[C@@H](CCCCNC(=O)[C@H](CCCNC(=N)N)NC(=O)[C@@H]1CCCN1C[C@@H](N)CCCCN)C(=O)NC(C)(C)C(=O)NCC(=O)N[C@@H](CCCCNC(=O)[C@H](CCCNC(=N)N)NC(=O)[C@@H]1CCCN1C[C@@H](N)CCCCN)C(=O)NC(C)(C)C(=O)NCC(=O)N[C@@H](CCCCNC(=O)[C@H](CCCNC(=N)N)NC(=O)[C@@H]1CCCN1C[C@@H](N)CCCCN)C(=O)NC(C)(C)C(=O)NCC(=O)N[C@@H](CCCCNC(=O)[C@H](CCCNC(=N)N)NC(=O)[C@@H]1CCCN1C[C@@H](N)CCCCN)C(=O)NC(C)(C)C(=O)NCC(=O)N[C@@H](CCCCNC(=O)[C@H](CCCNC(=N)N)NC(=O)[C@@H]1CCCN1C[C@@H](N)CCCCN)C(=O)NC(C)(C)C(=O)NCC(=O)N[C@@H](CCCCNC(=O)[C@H](CCCNC(=N)N)NC(=O)[C@@H]1CCCN1C[C@@H](N)CCCCN)C(=O)NC(C)(C)C(=O)NCC(N)=O [Nucant N6L]
reduction of surface nucleolin level (1 μM, band intensity by NIH image): more than 80% | surface nucleolin level (2 μM): no longer detectable
